US20130131088A1 (UNIVERSITY HEALTH NETWORK, priority 2010, published 2013)

Tested on: normal cells (PBSC1)
Conditions: combination of dipyridamole and statins at the highest concentrations assessed for the primary AML patient samples

OCCN(CCO)c1nc(N2CCCCC2)c2nc(N(CCO)CCO)nc(N3CCCCC3)c2n1 [dipyridamole]
toxicity to normal cells: not toxic
